The list shows a part of the results.
These compounds were tested on A. baumannii ATCC 17978 (assay: relative growth (fraction of control); higher = less inhibition). Details: 50 µM.
Work on `COc1cc([C@@H]2c3cc4c(cc3C(OC3O[C@@H]5COC(C)O[C@H]5[C@H](O)[C@H]3O)C3COC(=O)[C@@H]32)OCO4)cc(OC)c1O` (stereo not given in full) yielded a relative growth of 0.916.
`CCCCCOC(=O)Nc1nc(=O)n([C@@H]2O[C@H](C)[C@@H](O)[C@H]2O)cc1F` was tested, and the relative growth was 1.08.
In the case of `O=C(O)CCN1C(=O)c2ccncc2C1=O`, the relative growth is reported as 0.845.
`O=C(Cc1ccncc1)NCC[C@H]1CC[C@H](NC(=O)C2CCOCC2)[C@@H](CO)O1` was tested, and the relative growth was 1.04.
`CCC1NC(=O)c2cc(S(N)(=O)=O)c(Cl)cc2N1` (stereo not given) showed a relative growth of 1.03.
With `O=C(C[C@H]1CC[C@H]2[C@@H](COC[C@H](O)CN2S(=O)(=O)c2ccc(F)cc2)O1)N[C@@H]1CCN(Cc2ccccc2)C1` the relative growth was 1.08.
Compound `COC(=O)c1cn(CC(=O)N2CCN(C)CC2)nn1` has a relative growth of 1.01.
Work on `CO[C@H]1/C=C/O[C@@]2(C)Oc3c(C)c(O)c4c(O)c(c(C=NN5CCN(C)CC5)c(O)c4c3C2=O)NC(=O)/C(C)=C\C=C\C(C)[C@H](O)[C@@H](C)[C@@H](O)[C@@H](C)[C@@H](OC(C)=O)[C@@H]1C` (stereo in doubt) yielded a relative growth of 0.191.
`CC(O)(P(=O)(O)O)P(=O)(O)O` was tested, and the relative growth was 1.05.
For `O=C(C[C@H]1CC[C@H]2[C@@H](COC[C@H](O)CN2C(=O)c2ccncc2)O1)NC1CCC1`, the relative growth was 1.01.
`O=C(CCCCCC(=O)N/N=C/[C@H](O)[C@@H](O)[C@H](O[C@@H]1O[C@H](CO)[C@H](O)[C@H](O)[C@H]1O)[C@H](O)CO)NO` gave a relative growth of 0.967.
Work on `Cn1c(=O)c2c(nc(SCC(=O)NC(C)(C)C)n2C)n(C)c1=O` yielded a relative growth of 1.06.
Compound `Cc1cnc(C(=O)NCCc2ccc(S(=O)(=O)NC(=O)NC3CCCCC3)cc2)cn1` has a relative growth of 1.05.
Compound `Cc1ccc(S(=O)(=O)N2C[C@@H](O)COC[C@H]3O[C@@H](CC(=O)N[C@H]4CCN(Cc5ccccc5)C4)CC[C@@H]32)cc1` has a relative growth of 1.14.
`C=C1C2CC[C@@]3(C)[C@H](c4ccoc4)OC(=O)C[C@]13O[C@H]1CC(=O)C(C)(C)[C@H](C(O)C(=O)OC)[C@@]21C` (stereo not given in full) gave a relative growth of 1.13.
With `O=C(C[C@@H]1C=C[C@@H](NC(=O)CN2CCOCC2)[C@H](CO)O1)NCc1cccc(F)c1` the relative growth was 1.09.
`CC(=O)[C@@]12O[C@]1(C)CC1C3CC=C4C[C@@H](O)CC[C@]4(C)C3CC[C@@]12C` (stereo partly drawn) [16beta-METHYL-16(17)-EPOXY-5-PREGNENOLONE] was tested, and the relative growth was 1.06.
`CCc1cn(C2OCC(O)C2CO)c(=O)nc1O` (stereo not given) showed a relative growth of 0.932.
`C[C@@H]1CN([C@@H](C)CO)C(=O)c2cc(C#CCN(C)C)cnc2O[C@H]1CN(C)Cc1ccc2c(c1)OCO2` showed a relative growth of 1.12.
`O=C(CCc1ccc(O)cc1)c1c(O)c([C@@H]2O[C@H](CO)[C@@H](O)[C@H](O)[C@H]2O)c(O)c([C@@H]2O[C@H](CO)[C@@H](O)[C@H](O)[C@H]2O)c1O` showed a relative growth of 1.02.
